Source: PubChem BioAssay AID1777 (Sanford-Burnham Center for Chemical Genomics, 2009)
This is a selection; strong and weak results do not stand in their true shares. Results with a measured potency or affinity are listed apart. Active and inactive are the calls of the source. No stated cut-off is given here; in the data, active means activation above about 50% (passing the limit was not always enough); inactive means the rest.

The chains behind the UniProt entries cited, without tags or fusion partners.
UniProt P41145, whole entry: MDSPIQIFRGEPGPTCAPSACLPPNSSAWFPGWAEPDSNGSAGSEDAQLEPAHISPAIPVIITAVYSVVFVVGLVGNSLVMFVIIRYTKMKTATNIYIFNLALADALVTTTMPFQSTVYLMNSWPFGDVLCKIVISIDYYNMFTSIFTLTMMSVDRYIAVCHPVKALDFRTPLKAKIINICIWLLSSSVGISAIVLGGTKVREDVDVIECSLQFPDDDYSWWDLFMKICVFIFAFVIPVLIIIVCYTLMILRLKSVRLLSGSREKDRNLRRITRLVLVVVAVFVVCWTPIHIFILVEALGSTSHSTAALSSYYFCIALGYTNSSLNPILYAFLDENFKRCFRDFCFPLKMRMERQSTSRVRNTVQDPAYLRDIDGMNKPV

Each compound was assayed against Kappa-type opioid receptor (Homo sapiens) (UniProt P41145) (assay: kappa opioid receptor activators – cell-based, luminescence, uHTS, primary screen (AID 1777)). Settings: KOR beta-arrestin recruitment, at 10 µM, active compounds read high.
For `O=C(NCC1(N2CCCCC2)CCCCC1)c1cccc(C(F)(F)F)c1`, the activation was inactive: -4.5%.
In the case of `COc1ccc(NC2CCN(C(=O)OC(C)(C)C)CC2)cc1`, the activation is reported as inactive: -5.1%.
For `CN1CCN(CCOC(=O)C(O)(c2ccccc2)c2ccccc2)CC1`, the activation was inactive: 4.8%.
With `O=C(NCC1(N2CCOCC2)CCCCC1)c1cc(=O)[nH]c2ccccc12` the activation was inactive: 1.4%.
In the case of `COc1cc(C(=O)NCC2(N3CCCCC3)CCCCC2)ccc1OC(F)F`, the activation is reported as inactive: -7.1%.
In the case of `O=C(NCC1(N2CCCCC2)CCCCC1)c1ccc(OC(F)F)cc1`, the activation is reported as inactive: 2.5%.
In the case of `O=C(NCC1(N2CCCCC2)CCCCC1)c1cccc([N+](=O)[O-])c1`, the activation is reported as inactive: -2.9%.
With `N#CC1(Nc2ccccc2)CCN(CCc2ccccc2)CC1` the activation was inactive: -1.4%.
`CCN1CCC(Nc2ccc(Cl)cc2)CC1` was tested, and the activation was inactive: 3%.
With `CCCOc1ccc(C(=O)NCC2(N(C)C)CCCCC2)cc1OC` the activation was inactive: -1.8%.
`CN(C)c1cccc(C(=O)NCC2(N3CCCCC3)CCCCC2)c1` was tested, and the activation was inactive: 0%.
`CC(C)c1ccc(NC2CCN(C(=O)OC(C)(C)C)CC2)cc1` was tested, and the activation was inactive: -0.8%.
`COc1cc(OC)c(C(=O)NCC2(N(C)C)CCCCC2)cc1OC` was tested, and the activation was inactive: -3.4%.
For `O=C(NCC1(N2CCOCC2)CCCCC1)c1cc2ccccc2o1`, the activation was inactive: -0.9%.
For `Cc1cc(C)cc(N(C(=O)c2ccccc2)C2CCN(C(=O)OC(C)(C)C)CC2)c1`, the activation was inactive: -1.6%.
For `CCOC(=O)N1CCC(Nc2ccc(OC)cc2)CC1`, the activation was inactive: -6.4%.
`N#CC1(Nc2ccccc2)CCN(Cc2ccccc2)CC1` was tested, and the activation was inactive: -1.9%.
For `O=C(OC1CN2CCC1CC2)C1c2ccccc2Oc2ccccc21` (stereo not drawn), the activation was inactive: -1.9%.
For `O=C(NCC1(N2CCCCC2)CCCCC1)c1ccc(=O)[nH]c1`, the activation was inactive: 0.9%.
In the case of `COc1ccc(C(=O)NCC2(N3CCCCC3)CCCCC2)c(OC)c1OC`, the activation is reported as inactive: 2.6%.
For `CC(C)(C)OC(=O)N1CCC(N(C(=O)c2ccccc2)c2ccc(F)cc2)CC1`, the activation was inactive: -3.7%.
`COc1ccc(C(=O)NCC2(N3CCCCC3)CCCCC2)cc1` was tested, and the activation was inactive: -0.3%.
In the case of `CSc1ccccc1C(=O)NCC1(N2CCCCC2)CCCCC1`, the activation is reported as inactive: 0.3%.
For `Cc1ccc(OCC(C)C)c(CN(CCCl)CCCl)c1`, the activation was inactive: 6%.
For `CCOC(=O)N1CCC(Nc2cccc(C)c2)CC1`, the activation was inactive: 3.8%.
For `COc1cc(C(=O)NCC2(N(C)C)CCCCC2)ccc1OC(F)F`, the activation was inactive: -3.9%.
With `CCOc1ccc(C)cc1CN(CCCl)CCCl` the activation was inactive: 2.2%.
In the case of `CCOC(=O)N1CCC(Nc2ccc(F)cc2)CC1`, the activation is reported as inactive: 5.5%.
`COc1ccc(NC2CCN(CCc3ccccc3)CC2)c(OC)c1` was tested, and the activation was inactive: 4.5%.
`O=C(NCC1(N2CCCCC2)CCCCC1)c1ccc(F)cc1` was tested, and the activation was inactive: -0.1%.
For `CCN1CCC(Nc2cccc(F)c2)CC1`, the activation was inactive: 0.2%.
With `CN(C)c1ccc(C(=O)NCC2(N3CCCCC3)CCCCC2)cc1` the activation was inactive: 0%.
In the case of `COc1cc(OC)cc(C(=O)NCC2(N3CCCCC3)CCCCC2)c1`, the activation is reported as inactive: 1%.
In the case of `Fc1ccccc1NC1CCN(Cc2ccccc2)CC1`, the activation is reported as inactive: 0.7%.
For `CCC(CO)(C(=O)OC1CN2CCC1CC2)c1ccccc1` (stereo not drawn), the activation was inactive: 3%.
In the case of `COc1cccc(C(=O)N(c2cc(C)cc(C)c2)C2CCN(C(=O)OC(C)(C)C)CC2)c1`, the activation is reported as inactive: 0.3%.
`COc1cc(OC)cc(C(=O)NCC2(N3CCOCC3)CCCCC2)c1` was tested, and the activation was inactive: 2.5%.
With `CCCOc1ccc(C)cc1CN(CCCl)CCCl` the activation was inactive: 12.4%.
In the case of `CN1CCC(Nc2ccc(Cl)cc2)CC1`, the activation is reported as inactive: 3.9%.
With `CN1CCC(Nc2ccc(F)c(Cl)c2)CC1` the activation was inactive: 0.4%.
In the case of `CCOc1ncccc1C(=O)NCC1(N2CCOCC2)CCCCC1`, the activation is reported as inactive: -1.1%.
`CCCOc1ccc(C(=O)NCC2(N(C)C)CCCCC2)cc1` was tested, and the activation was inactive: -2.3%.
With `O=C(O)C1(Nc2ccccc2)CCN(Cc2ccccc2)CC1` the activation was inactive: -2%.
In the case of `CC(C)(C)OC(=O)N1CCC(Nc2ccccc2)CC1`, the activation is reported as inactive: -3.4%.
In the case of `N/C(=N\O)c1c(N)no[n+]1[O-]`, the activation is reported as inactive: -0.7%.
`CCOC(=O)N1CCC(Nc2ccc(C)cc2)CC1` was tested, and the activation was inactive: 6.3%.
`O=C(OC1CN2CCC1CC2)C1c2ccccc2C=Cc2ccccc21` (stereo not drawn) was tested, and the activation was inactive: 5.7%.
In the case of `COc1ccc(C(=O)NCC2(N3CCOCC3)CCCCC2)cc1OC`, the activation is reported as inactive: -3.2%.
In the case of `CCCN1CCC(Nc2cc(OC)cc(OC)c2)CC1`, the activation is reported as inactive: 1.9%.
In the case of `c1ccc(CN2CCC(Nc3ccccc3)CC2)cc1`, the activation is reported as inactive: -0.9%.
For `CN(C)C1(CNC(=O)c2cccc(C#N)c2)CCCCC1`, the activation was inactive: 0%.
For `CC(C)(C)OC(=O)N1CCC(N(C(=O)c2ccccc2)c2ccc(Cl)cc2)CC1`, the activation was inactive: -1.9%.
`N#Cc1ccc(C(=O)NCC2(N3CCCCC3)CCCCC2)cc1` was tested, and the activation was inactive: 5.5%.
